According to US11478464B1, “Method for treating inflammation” (KING FAISAL UNIVERSITY, priority 2022, dated 2022):

Test system: HEK293 cells
Details: human, 24 h, 40 μM

Cc1ccc(-c2cc(C(F)(F)F)nn2-c2ccc(S(N)(=O)=O)cc2)cc1 [Celecoxib]
Proliferation of HEK293 (difference in absorbance between 450 and 620 nm), Average: 0.96
